The source of these data is patent US20210277368A1, “COMPOSITIONS AND METHODS FOR TREATMENT OF CHEMICAL WARFARE AGENTS” (published 2021).

Sequences of proteins named here, by UniProt entry; tags and fusion partners are left off. Residues count along the entry.
UniProt P06276, 29-602: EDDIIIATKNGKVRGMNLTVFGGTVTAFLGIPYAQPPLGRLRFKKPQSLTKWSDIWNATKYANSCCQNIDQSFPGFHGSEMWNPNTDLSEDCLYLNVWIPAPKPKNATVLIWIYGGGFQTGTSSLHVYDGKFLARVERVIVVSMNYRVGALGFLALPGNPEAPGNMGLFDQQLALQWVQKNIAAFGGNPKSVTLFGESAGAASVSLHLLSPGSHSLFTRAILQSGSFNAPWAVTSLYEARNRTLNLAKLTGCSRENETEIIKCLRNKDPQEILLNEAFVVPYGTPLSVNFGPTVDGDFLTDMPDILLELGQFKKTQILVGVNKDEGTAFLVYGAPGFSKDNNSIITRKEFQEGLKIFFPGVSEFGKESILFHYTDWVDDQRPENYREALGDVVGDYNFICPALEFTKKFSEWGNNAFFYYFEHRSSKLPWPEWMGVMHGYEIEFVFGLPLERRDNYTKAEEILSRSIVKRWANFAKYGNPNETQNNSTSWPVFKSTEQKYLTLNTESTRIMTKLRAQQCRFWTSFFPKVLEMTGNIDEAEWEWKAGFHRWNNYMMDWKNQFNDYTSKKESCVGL
UniProt P06276, 29-602 Y310N/G311H/T312M/P313L: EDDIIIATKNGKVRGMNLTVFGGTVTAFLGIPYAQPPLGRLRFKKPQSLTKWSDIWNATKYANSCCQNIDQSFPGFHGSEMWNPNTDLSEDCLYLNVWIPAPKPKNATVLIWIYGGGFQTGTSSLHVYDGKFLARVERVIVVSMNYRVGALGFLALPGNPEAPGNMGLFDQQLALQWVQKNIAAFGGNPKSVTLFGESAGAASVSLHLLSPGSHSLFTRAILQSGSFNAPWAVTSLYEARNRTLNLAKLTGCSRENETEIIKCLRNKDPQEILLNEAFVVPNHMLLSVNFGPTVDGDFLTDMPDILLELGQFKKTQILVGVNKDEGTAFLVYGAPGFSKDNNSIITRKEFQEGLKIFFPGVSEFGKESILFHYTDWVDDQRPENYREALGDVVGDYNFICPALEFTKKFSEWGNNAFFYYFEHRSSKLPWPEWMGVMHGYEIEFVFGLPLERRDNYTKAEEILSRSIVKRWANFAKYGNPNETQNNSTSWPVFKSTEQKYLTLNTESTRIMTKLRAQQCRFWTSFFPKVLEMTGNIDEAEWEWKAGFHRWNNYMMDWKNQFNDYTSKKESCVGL

For assay [1], the target named is recombinant human WT BChE (wild type; UniProtKB P06276.1) (Homo sapiens, UniProt P06276). The assay is described as follows: Substrate titration. The conditions noted are these: 7.8 μM to 10 mM BTC, 10 mM MOPS pH 7.4, 37° C.
In assay [2] the target is recombinant human-porcine hybrid BChE (human BChE variant Y282N/G283H/T284M/P285L; YGTP SEQ ID NO: 2 to NHML SEQ ID NO: 4) (Homo sapiens, UniProt P06276, G311H/P313L/T312M/Y310N). Kind of assay: Substrate titration. The settings on record: 7.8 μM to 10 mM BTC, 10 mM MOPS pH 7.4, 37° C.
Where [3] appears, read: read-out: KM (butyrylthiocholine).

Turning to `CCCC(=O)SCC[N+](C)(C)C`, the Km was determined as 456 µM in assay [1] (setting [3]) and 292 µM in assay [2] (setting [3]).

`CCCC(=O)SCC[N+](C)(C)C.[I-]`: the “Vmax (butyrylthiocholine)” value was 20.5 in assay [1] and 8.78 in assay [2].

As a reminder, the Km is the substrate concentration at which the rate is half of its maximum.
